Target: ERα/β (Homo sapiens, UniProt P03372)
Experiment: ERE-GFP reporter activation/inhibition assay in MCF-7 cells
Conditions: data not shown

Chains of the proteins cited; added tags and fusions are not shown.
UniProt P03372, whole entry: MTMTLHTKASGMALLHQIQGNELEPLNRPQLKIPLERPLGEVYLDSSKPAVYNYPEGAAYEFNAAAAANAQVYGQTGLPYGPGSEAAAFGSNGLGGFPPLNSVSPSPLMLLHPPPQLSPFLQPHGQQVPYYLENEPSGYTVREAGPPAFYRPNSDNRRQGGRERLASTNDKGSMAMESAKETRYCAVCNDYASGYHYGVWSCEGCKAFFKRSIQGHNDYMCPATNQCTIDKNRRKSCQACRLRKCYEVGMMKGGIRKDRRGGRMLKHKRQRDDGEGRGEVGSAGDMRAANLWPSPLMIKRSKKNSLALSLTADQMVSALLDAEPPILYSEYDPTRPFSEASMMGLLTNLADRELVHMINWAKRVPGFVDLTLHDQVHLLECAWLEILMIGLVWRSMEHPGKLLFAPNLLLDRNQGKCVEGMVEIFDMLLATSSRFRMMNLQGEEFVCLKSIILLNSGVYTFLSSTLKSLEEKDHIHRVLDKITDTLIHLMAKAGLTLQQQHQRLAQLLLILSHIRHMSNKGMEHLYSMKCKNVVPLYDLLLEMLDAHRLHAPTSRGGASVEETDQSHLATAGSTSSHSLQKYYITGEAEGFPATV

effect on GFP induction by E2 and G15 (coincubation): complete ablation
SMILES: C[C@]12CC[C@@H]3c4ccc(O)cc4C[C@@H](CCCCCCCCC[S+]([O-])CCCC(F)(F)C(F)(F)F)[C@H]3[C@@H]1CC[C@@H]2O (stereo partly shown) [ICI182,780]
